Source: patent US10213438B2, “Alkaloid compounds for treating depression, substance addictions, and indications associated with chronic inflammation” (MyMD Pharmaceuticals, Inc., priority 2014, dated 2019)

By UniProt entry, the sequences of proteins in these tests, tags left out.
UniProt P21397, whole entry, species assumed: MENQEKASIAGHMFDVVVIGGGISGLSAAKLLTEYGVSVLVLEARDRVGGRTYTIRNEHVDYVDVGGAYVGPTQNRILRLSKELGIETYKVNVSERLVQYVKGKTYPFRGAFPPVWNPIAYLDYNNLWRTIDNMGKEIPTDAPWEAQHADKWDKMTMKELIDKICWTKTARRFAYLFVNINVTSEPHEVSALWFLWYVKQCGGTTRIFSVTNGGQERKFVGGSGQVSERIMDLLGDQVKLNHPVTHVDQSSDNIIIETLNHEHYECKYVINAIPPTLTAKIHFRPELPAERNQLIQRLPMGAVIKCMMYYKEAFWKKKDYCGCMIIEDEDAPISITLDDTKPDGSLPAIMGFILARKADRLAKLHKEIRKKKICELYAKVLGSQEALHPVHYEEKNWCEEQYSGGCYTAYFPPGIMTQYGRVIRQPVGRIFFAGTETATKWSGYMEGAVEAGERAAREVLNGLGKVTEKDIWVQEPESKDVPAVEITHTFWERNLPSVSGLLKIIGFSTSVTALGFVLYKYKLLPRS

Target: MAO-A (Homo sapiens, UniProt P21397)
Assay: MAO-Glo luminescent assay, MAO-A
Type: biochemical
Conditions: 1 hour at room temperature, FIG. 5
From the text: This example describes experiments for determining monoamine oxidase (MAO) inhibition for 2-(pyridin-3-yl)-2,3,4,7-tetrahydro-1H-azepine and other alkaloids. MAOs are enzymes located on the outer membrane of mitochondria and are involved in the catabolism of monoamine neurotransmitters. There are two well-characterized isoenzymes: MAO-A, which predominantly catabolizes serotonin and norepinephrine, and MAO-B, which preferentially catabolizes benzylamine and phenylethylamine. Dopamine and tyramine are metabolized by both isoforms.
To detect the activity of MAO, a luminescent method (MAO-Glo Assay kit, from Promega, Cat # V1401) was used. In this method, a MAO substrate (a derivative of beetle luciferin provided in the kit) is mixed with the compound to be tested (in this case, myosmine and control compounds). Then, the MAO enzymes (either A or B, purchased separately) are added to the mixture and incubated with the reaction for 1 hour at room temperature. The MAO enzymes, if not inhibited by the test compound, will convert the substrate into methyl ester luciferin. Finally, a luciferin detection reagent (provided by the kit) is added (20 minutes at room temperature) to stop the MAO reaction and convert methyl ester luciferin into D-luciferin. […] The luminescent signal is measured and recorded using a luminometer. […]

C#CCN(C)CCCOc1ccc(Cl)cc1Cl [clorgyline]
inhibition of MAO-A (activity curve): greatly shifted leftward
